# Assay outcomes: PubChem BioAssay, National Center for Advancing Translational Sciences (NCATS)
# TDP1 inh – inhibitors of human tyrosyl-DNA phosphodiesterase TDP1 | 350,000 tested, 0.28% active | Q9NUW8 | Potency, µM (doses to about 130 µM), inactives show top-dose activity change, negative = inhibition, usual class: inhibitors | recombinant TDP1, AlphaScreen DNA substrate cleavage; note: potency is the fitted concentration of half-maximal effect; % is set by controls: 0 for no effect and ±100 for the full control effect; nearly all actives have a fitted effect of over 40% in size
#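 Enzyme-compound mixtures sat 15 min at room temperature, followed by a 5 min reaction with 15 nM final substrate and 10 min with AlphaScreen beads. Recombinant human Tdp1 was used at 1 nM final.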
# uPA surface inh – inhibitors of cell surface uPA generation | cell surface uPA generation assay, qHTS | 330,000 tested, 0.31% active | Potency, µM (doses to about 38.3 µM), for inactives: at the highest dose activity change, negative = inhibition, actives largely listed as inhibitors; active = well fitted inhibition curve with a large enough effect; inconclusive = small, poorly fitted or top-dose-only effect; inactive = no such curve, though single readings can be large or run the other way; tested in mouse RAW 264.7 cells; note: potency is the fitted concentration of half-maximal effect; % is set by controls: 0 for no effect and ±100 for the full control effect; nearly all actives have a fitted effect of over 55% in size
# TDP1 cell noCPT – qHTS for Inhibitors of human tyrosyl-DNA phosphodiesterase 1 (TDP1): qHTS in cells in absence of CPT | DT40 Tdp1-/- hTDP1 cells, no CPT, ATP luminescence, 48 h | Potency, µM (highest dose often 46.2 µM), for inactives: at the top dose activity change, negative = growth inhibition, actives largely listed as inhibitors | 420,000 tested, 15% active | AID 686978, 2013; note: potency is the fitted concentration of half-maximal effect; % is set by controls: 0 for no effect and ±100 for the full control effect; nearly all actives have a fitted effect of over 55% in size
#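 Camptothecin absent (DMSO only). Human TDP1-complemented DT40 knockout cells, 400 cells/well, 37 °C for minimum 48 hr; ATP measured via CellTiter-Glo, 30 min dark incubation, luminescence.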
# TDP1 cell CPT – growth inhibition of DT40 Tdp1-/-;hTDP1 cells with camptothecin (screen for TDP1 inhibitors). chicken DT40 Tdp1-/-;hTDP1 cells + 20 nM CPT, ATP luminescence, 48 h. Potency, µM (top dose mostly 46.2 µM), inactives show top-dose activity change, negative = growth inhibition, usual class: inhibitors. 420,000 tested, 12% active. AID 686979; note: potency is the fitted concentration of half-maximal effect; % is set by controls: 0 for no effect and ±100 for the full control effect; nearly all actives have a fitted effect of over 55% in size
#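 Chicken DT40 Tdp1-/- cells stably complemented with human TDP1 were seeded at 400 cells/well in medium containing 20 nM camptothecin, exposed to pin-transferred compounds, and grown at 37 °C for at least 48 hr. Viability was read as ATP luminescence.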
# miR-21 reporter – miR-21 reporter, rising signal. HeLa miR-21 FLuc reporter, luciferase, 48 h. Potency, µM (titrated, usually from 38.3 µM), without a hit: at the top dose reporter change, positive = more light. 340,000 tested, under 10 active. AID 2288; active = well fitted rising curve with a large enough effect; inconclusive = small, poorly fitted or top-dose-only effect; inactive = no such curve, though single readings can be large or run the other way;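 also: % of control where 0% means no effect; miR-21 action dims this reporter so a rising signal means less miR-21 action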
#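 Compounds were titrated across several concentrations (up to approximately 40 uM) and incubated 48 hours with HeLa miR-21-FLuc reporter cells (miR-21 target sequence downstream of FLuc, endogenous miR-21). Readout was firefly luciferase luminescence after lytic detection reagent.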
# * marks the source's active call; other numbers are inactive results; ? = inconclusive; / = no result; ! = repeats disagree; [ ] = dose if it differs, or a comment. This is a sample that favours compounds with a hit; in the whole collection about 16% have one here. Unless noted, calls come from the whole dose curve; as a rule, active = well fitted curve in the direction sought with a large enough effect; inconclusive = small, poorly fitted or top-dose-only effect, or another doubt; inactive = no such curve, though single readings can be large; an effect the other way counts as inactive or inconclusive.
mol,TDP1 inh,uPA surface inh,TDP1 cell noCPT,TDP1 cell CPT,miR-21 reporter
NC(=O)c1cccc(S(=O)(=O)N2CC(c3ccccc3)CC2=O)c1 (stereo not drawn),5%,-1%,?,?,2%
Cc1cc2nc(C3CCCN(C(=O)NCc4ccccc4)C3)[nH]c2cc1C (stereo not drawn),2%,-1%,?,-28%,-36%
CCCCCCCCOC(=O)/C=C/c1c(C)[nH]c(=O)[nH]c1=O,0%,-1%,7.3µM*,?,-8%
C[C@H](NS(=O)(=O)c1ccc(Cl)cc1)C(=O)OCC(=O)c1ccc[nH]1,1%,7%,-16%,-4%,-1%
N/C(=N\c1nc2c(c(=O)[nH]1)CCC2)Nc1cccc(Cl)c1,-3%,-11%,26µM*,21µM*,11%
CC(C)OC(=O)/C(C#N)=C/c1ccc(-c2ccc(SC(F)F)cc2)o1,8%,-1%,?,?,-8%
CCN(CC(=O)Nc1c(F)cccc1F)C(=O)c1ccc(C(=O)c2ccccc2)cc1,1%[0.505 µM],6%,?,-30%,/
NC(=NCCc1c[nH]c2ccccc12)NS(=O)(=O)c1ccc2ccccc2c1,0%,-1%,5.2µM*,4.6µM*,15%
NC(=NCCc1c[nH]c2ccccc12)NS(=O)(=O)c1ccc(F)cc1,7%,-4%,?,?,9%
O=C(NCCC1=CCCCC1)C1CCN(S(=O)(=O)N2CCOCC2)CC1,0%,/,-27%,-27%,-1%
CCC1CN(C(=O)N2CCC(C(=O)NCc3ccccc3F)CC2)c2ccccc2O1 (stereo not drawn),1%,/,15µM*,?,-2%
CCC1CN(C(=O)N2CCC(C(=O)NCCc3ccccc3Cl)CC2)c2cc(C)ccc2O1 (stereo not drawn),6%,/,21µM*,16µM*,27%
CCC1CN(C(=O)N2CCC(C(=O)NCc3ccccc3C)CC2)c2ccccc2O1 (stereo not drawn),2%,2%,21µM*,18µM*,5%
CCC1CN(C(=O)N2CCC(C(=O)NCCN(CC)CC)CC2)c2ccccc2O1 (stereo not drawn),3%,/,4%,7%,18%
CCC1CN(C(=O)NCc2ccccc2)c2cc(C)ccc2O1 (stereo not drawn),4%,5%,?,?,?

# 3 of the compounds above, as labelled records.
SMILES: CC(C)OC(=O)/C(C#N)=C/c1ccc(-c2ccc(SC(F)F)cc2)o1
  TDP1 inh: 8%; uPA surface inh: -1%; TDP1 cell noCPT: ?; TDP1 cell CPT: ?; miR-21 reporter: -8%

SMILES: CCN(CC(=O)Nc1c(F)cccc1F)C(=O)c1ccc(C(=O)c2ccccc2)cc1
  TDP1 inh: 1%[0.505 µM]; uPA surface inh: 6%; TDP1 cell noCPT: ?; TDP1 cell CPT: -30%; miR-21 reporter: /

SMILES: NC(=NCCc1c[nH]c2ccccc12)NS(=O)(=O)c1ccc2ccccc2c1
  TDP1 inh: 0%; uPA surface inh: -1%; TDP1 cell noCPT: 5.2µM*; TDP1 cell CPT: 4.6µM*; miR-21 reporter: 15%

# The list goes on:
Structure,TDP1 inh,uPA surface inh,TDP1 cell noCPT,TDP1 cell CPT,miR-21 reporter
CCC1CN(C(=O)N2CCC(C(=O)NCCC3=CCCCC3)CC2)c2ccccc2O1 (stereo not drawn),1%,/,12µM*,16µM*,-1%
O=C(NCc1ccccc1F)C1CCN(C(=O)NCc2ccccc2)CC1,4%,8%,-5%,-11%,0%
CCC1CN(C(=O)N2CCC(C(=O)Nc3ccccc3F)CC2)c2ccccc2O1 (stereo not drawn),3%,3%,23µM*!,?,6%
Cc1ccc(NC(=O)C2CCN(C(=O)N3CCOc4ccccc43)CC2)cc1,/,7%,?,?,12%
Cc1ccc2c(c1)N(C(=O)N1CCC(C(=O)NCCc3ccccc3)CC1)CC(C)O2 (stereo not drawn),6%,/,?,?,-1%
CCC1CN(C(=O)N2CCC(C(=O)Nc3cc(C)ccc3C)CC2)c2ccccc2O1 (stereo not drawn),6%,/,13µM*,13µM*,26%
CCC1CN(C(=O)N2CCC(C(=O)NCCN(C)C)CC2)c2ccccc2O1 (stereo not drawn),5%,/,-7%,2%,-8%
CCC1CN(C(=O)N2CCC(C(=O)NCCc3ccccc3C)CC2)c2ccccc2O1 (stereo not drawn),6%,/,21µM*,?,?
Cc1ccc2c(c1)N(C(=O)N1CCC(C(=O)NCCC3=CCCCC3)CC1)CC(C)O2 (stereo not drawn),3%,/,18µM*,?,-38%
CCC1CN(C(=O)N2CCC(C(=O)NCCc3ccc(Cl)cc3)CC2)c2ccccc2O1 (stereo not drawn),-3%,/,15µM*,16µM*,3%
